Source: article PMC7540253, “Sensitive LC-MS/MS Method for the Quantification of Macrocyclic Gαq Protein Inhibitors in Biological Samples” (Frontiers in Chemistry, 2020)

Settings: CD-1 mice
[1] = single oral dose 0.2 mg FR, ~1.25 h, LC-MS/MS, three mice

FR900359
Concentration of FR in stomach (single oral dose 0.2 mg FR by stomach tube, ~1.25 h after application, 3-step LLE, LC-MS/MS, organs from three mice (Figure 4)): highest concentrations
Peroral absorption (single oral dose 0.2 mg FR, judged from tissue levels ~1.25 h after application): low peroral absorption
Concentration of FR in adipose tissue [1]: Low levels
Concentration of FR in brain [1]: almost no FR was detectable
Concentration of FR in eyes [1]: highest concentrations
Concentration of FR in heart [1]: Low levels
Concentration of FR in intestine [1]: almost no FR was detectable
Concentration of FR in liver [1]: Low levels
Concentration of FR in lung [1]: Low levels
Concentration of FR in blood plasma (single oral dose 0.2 mg FR, ~1.25 h, plasma diluted 1:10 in methanol, LC-MS/MS, three mice): almost no FR was detectable
